The conditions of the data set: 10 mg/kg/week.

Each structure is given as a SMILES string.

With `O=C1[O][Pt]2([NH][C@@H]3CCCC[C@H]3[NH]2)[O]C1=O` [oxaliplatin], the “liver and kidney toxicities (elevated AST & ALT, hypocalcemia and hypoglycemia)” value was “significant liver and kidney toxicities”.

(Values after patent US20130045162A1, “DELIVERY SYSTEM FOR SPECIFICALLY TARGETING CANCER CELLS AND METHOD OF USE THEREOF” (MOREHOUSE SCHOOL OF MEDICINE, priority 2011, published 2013).)
